Among the data in ChEMBL document CHEMBL1124221, “Highly selective kappa opioid analgesics. Synthesis and structure-activity relationships of novel N-[(2-aminocyclohexyl)aryl]acetamide and N-[(2-aminocyclohexyl)aryloxy]acetamide derivatives” (1988) are Ratio values, retold here.

In this test the target is Opioid receptors; mu & kappa (Homo sapiens) (UniProt P41145+P35372). Description: Ratio of Ki at mu-opioid receptor to Ki at kappa opioid receptor. As to conditions: Cavia porcellus.

In the case of `CN(C(=O)Cc1cccc2sccc12)[C@@H]1CCCC[C@H]1N1CCCC1`, the Ratio amounted to 0.59.
